In PubChem BioAssay (NCATS):
Only a part is listed here, and it is no random draw. Some of these compounds have results that are not shown, active ones among them. Inconclusive results are not listed. Activity calls are given as the source filed them. Unless noted, calls follow the shape of the dose curve; as a rule, active = well fitted curve in either direction with a large enough effect (not every such curve was filed as active); inconclusive = small, poorly fitted or top-dose-only effect, or another doubt; inactive = flat fitted curve, though single readings scatter.

Amino acid sequences for entries named in this document (tags omitted).
UniProt Q07343, whole entry: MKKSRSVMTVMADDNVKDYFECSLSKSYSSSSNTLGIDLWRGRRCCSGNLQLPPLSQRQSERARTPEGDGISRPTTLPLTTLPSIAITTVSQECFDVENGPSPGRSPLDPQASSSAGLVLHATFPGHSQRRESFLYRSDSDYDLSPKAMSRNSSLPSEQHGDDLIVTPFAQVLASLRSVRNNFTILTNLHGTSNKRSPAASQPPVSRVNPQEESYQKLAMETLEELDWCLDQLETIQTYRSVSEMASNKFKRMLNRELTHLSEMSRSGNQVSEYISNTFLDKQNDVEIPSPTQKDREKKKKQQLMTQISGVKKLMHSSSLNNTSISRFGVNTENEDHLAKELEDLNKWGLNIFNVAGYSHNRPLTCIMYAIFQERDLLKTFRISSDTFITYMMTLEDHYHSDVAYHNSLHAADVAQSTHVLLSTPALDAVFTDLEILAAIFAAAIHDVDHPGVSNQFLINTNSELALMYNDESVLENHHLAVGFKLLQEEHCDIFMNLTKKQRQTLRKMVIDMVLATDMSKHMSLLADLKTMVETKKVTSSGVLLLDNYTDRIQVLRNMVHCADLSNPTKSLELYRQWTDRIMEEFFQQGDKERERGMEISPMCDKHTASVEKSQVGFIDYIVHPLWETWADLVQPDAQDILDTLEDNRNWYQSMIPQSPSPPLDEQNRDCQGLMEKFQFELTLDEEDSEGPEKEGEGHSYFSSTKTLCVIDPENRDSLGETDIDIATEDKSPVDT
UniProt Q99828, whole entry: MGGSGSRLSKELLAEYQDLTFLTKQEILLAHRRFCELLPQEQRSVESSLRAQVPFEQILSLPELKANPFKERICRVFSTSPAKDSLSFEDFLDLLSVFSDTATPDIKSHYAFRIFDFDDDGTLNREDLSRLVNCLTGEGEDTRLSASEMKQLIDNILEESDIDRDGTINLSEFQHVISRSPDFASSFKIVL
UniProt O94782, whole entry, looked up: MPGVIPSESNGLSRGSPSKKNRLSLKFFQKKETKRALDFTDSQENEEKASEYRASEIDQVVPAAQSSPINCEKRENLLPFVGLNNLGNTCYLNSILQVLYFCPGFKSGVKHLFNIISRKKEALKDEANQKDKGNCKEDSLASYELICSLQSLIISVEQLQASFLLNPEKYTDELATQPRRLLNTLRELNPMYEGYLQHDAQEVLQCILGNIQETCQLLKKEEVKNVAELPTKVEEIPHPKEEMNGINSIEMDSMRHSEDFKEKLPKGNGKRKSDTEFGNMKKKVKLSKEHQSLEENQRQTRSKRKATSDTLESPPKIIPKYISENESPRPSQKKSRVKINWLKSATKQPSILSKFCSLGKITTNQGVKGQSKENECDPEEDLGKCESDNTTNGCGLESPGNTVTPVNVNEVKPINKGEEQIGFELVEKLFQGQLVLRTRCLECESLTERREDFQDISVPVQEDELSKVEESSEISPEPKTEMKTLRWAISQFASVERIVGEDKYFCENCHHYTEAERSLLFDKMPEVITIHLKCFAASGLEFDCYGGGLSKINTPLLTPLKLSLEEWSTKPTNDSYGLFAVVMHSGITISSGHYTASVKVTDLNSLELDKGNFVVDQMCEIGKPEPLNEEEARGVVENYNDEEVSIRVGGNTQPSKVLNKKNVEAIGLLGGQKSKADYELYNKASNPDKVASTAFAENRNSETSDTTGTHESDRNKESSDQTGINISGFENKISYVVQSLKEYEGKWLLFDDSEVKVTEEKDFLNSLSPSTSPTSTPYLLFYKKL
UniProt P08659, whole entry: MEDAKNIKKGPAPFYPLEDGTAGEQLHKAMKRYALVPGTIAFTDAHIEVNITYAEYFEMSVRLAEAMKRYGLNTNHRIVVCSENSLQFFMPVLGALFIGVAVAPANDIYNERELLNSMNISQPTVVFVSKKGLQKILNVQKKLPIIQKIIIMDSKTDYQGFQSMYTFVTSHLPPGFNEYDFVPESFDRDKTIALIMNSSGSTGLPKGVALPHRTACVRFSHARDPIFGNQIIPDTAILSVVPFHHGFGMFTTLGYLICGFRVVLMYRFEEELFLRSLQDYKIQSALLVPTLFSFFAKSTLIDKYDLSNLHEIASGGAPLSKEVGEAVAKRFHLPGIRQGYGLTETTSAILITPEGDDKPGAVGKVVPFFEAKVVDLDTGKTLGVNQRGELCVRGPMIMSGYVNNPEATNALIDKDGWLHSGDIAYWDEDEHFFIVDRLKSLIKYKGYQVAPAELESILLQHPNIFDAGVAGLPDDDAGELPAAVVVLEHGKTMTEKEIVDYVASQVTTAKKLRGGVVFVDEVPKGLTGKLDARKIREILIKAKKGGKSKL

Columns and labels:
[1] = AP1 Signaling Pathway (AID 357); conditions: ME-180 AP-1-bla reporter, EGF-induced, beta-lactamase ratio, 5 h; at 7.69 µM (top of the series);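 also: ME-180 reporter cells stimulated with EGF at its EC50 level; % is scaled to controls: 0 for no effect and ±100 for the full control effect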
Procedure, shortened: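 AP-1-bla ME-180 cells, Opti-MEM + 0.5% dialyzed FBS, plated overnight 37 °C. Cpd titration + EC50 EGF, 5 h 37 °C. CCF4 2.5 h RT; ex 405, em 460/530 ratio → %activity, AC50.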

[2] = Stat Signaling Pathway (AID 446); conditions: ME-180 SIE beta-lactamase reporter, IL-6 stimulated, 5 h; at 7.69 µM (top of the series);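 also: ME-180 cervical cancer cells given 40 pM IL-6 alongside compound; SIE-controlled beta-lactamase reporter measured as 460/530 nm FRET emission ratio; % is scaled to controls: 0 for no effect and ±100 for the full control effect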
Procedure, shortened: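 ME-180 cells carrying a SIE-driven beta-lactamase reporter are stimulated with 40 pM IL-6 for 5 h at 37C in the presence of compound. The 460/530 nm FRET substrate ratio is read after 2.5 h at RT. Data are normalised to 300 pM IL-6 and to 125 nM JAK inhibitor controls.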

[3] = molecular target: Mitogen-activated protein kinase 10 (Mus musculus) (UniProt Q61831); assay: JNK3 AlphaScreen Assay (AID 530); conditions: JNK3 lysate, c-Jun phosphorylation; at 11.4 µM (top of the series);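 also: kinase came from lysate of stimulated human HepG2 cells; signal reports phosphorylation of biotinylated GST-cJun 1-79 at Ser73 with 10 µM ATP; % is scaled to controls: 0 for no effect and ±100 for the full control effect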
Procedure, shortened: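 Inhibitors reduce antibody binding to phosphorylated biotin-cJun, lowering AlphaScreen luminescence. Lysates from HepG2 cells pre-activated by IL-1beta plus TNF-alpha supplied JNK3; compounds were titrated.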

[4] = molecular target: 3',5'-cyclic-AMP phosphodiesterase 4B (Homo sapiens) (UniProt Q07343); assay: qHTS Assay for Inhibitors of PDE-IV (AID 607; active = well fitted activation curve with a large enough effect in the main read-out, with a control signal flat, not every such curve was filed as active; also: % of control where 0% means no effect); conditions: HEK293 ACTOne CNG channel cells, membrane potential fluorescence; at 22.9 µM (top of the series)
Procedure, shortened: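 HEK293 ACTOne cells with CNG channel (1000/well), endogenous PDE4; membrane potential dye, compounds up to 22.9 uM final. Fluorescence Ex 535/Em 590; RO 20-1724 (100 uM final) as reference.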

[5] = molecular target: Calcium and integrin-binding protein 1 (Homo sapiens) (UniProt Q99828); assay: Primary qHTS for Identification of Calcium Integrin Binding Protein 1 (CIB1) Competitor (AID 1508620; active = well fitted curve in the direction sought with a large enough effect; an effect the other way counts as inactive or inconclusive;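 also: GST tagged CIB1 binding a fluorescein labelled alphaIIb integrin peptide tracer; top concentration of the series differs between compounds; % is scaled to controls: 0 for no effect and ±100 for the full control effect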); conditions: CIB1-GST / FITC-alphaIIb peptide fluorescence polarization; at 114 µM (top of the series)
Procedure, shortened: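 Fluorescence polarization competition: CIB1-GST (1 uM final) preincubated with compound 15 min at room temperature, then FITC-labeled alphaIIb peptide (100 nM final) added for another 15 min. Polarization read at Ex 480/Em 540.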

[6] = NFAT Signaling Pathway (AID 444); conditions: Jurkat NFAT-bla M1, carbachol, beta-lactamase ratio, 5 h; at 7.69 µM (top of the series)
Procedure, shortened: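 Jurkat cells carrying an NFAT-driven β-lactamase reporter and co-transfected muscarinic M1 receptor were treated with compound plus carbachol (1 uM final, an EC50 level) for 5 h at 37 °C. CCF4 loading followed for 1 h at RT; 460/530 nm ratio gave %activity.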

[7] = qHTS Assay for Identification of Small Molecule Agonists for Hypoxia Response Element Signaling Pathway (AID 914; active = well fitted activation curve with a large enough effect in the signal ratio, with a control signal flat, not every such curve was filed as active; the % refers to the signal ratio; also: % of control where 0% means no effect); conditions: ME-180 (cervical carcinoma) HRE-bla reporter, beta-lactamase ratio, CoCl2, 17 h; hits give high values
[8] = molecular target: Ubiquitin carboxyl-terminal hydrolase 1 (Homo sapiens) (UniProt O94782); assay: Inhibitors of USP1/UAF1: Pilot qHTS (AID 504865; active = well fitted curve in the direction sought with a large enough effect; an effect the other way counts as inactive or inconclusive;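 also: rhodamine fluorescence freed from ubiquitin-rhodamine substrate followed over time; top concentration of the series differs between compounds; % is scaled to controls: 0 for no effect and ±100 for the full control effect; nearly all actives have a fitted effect of over 35% in size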); conditions: purified USP1/UAF1, Ub-rhodamine cleavage fluorescence; at 114 µM (top of the series)
[9] = molecular target: Luciferin 4-monooxygenase (Photinus pyralis) (UniProt P08659); assay: Biochemical firefly luciferase enzyme assay for NPC (AID 624030; active = well fitted curve in the direction sought with a large enough effect; an effect the other way counts as inactive or inconclusive;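 also: purified P. pyralis luciferase at 10 nM with luciferin and ATP substrate; 0% = DMSO and -100% = full luciferase inhibition by PTC124 control; nearly all actives have a fitted effect of over 70% in size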); conditions: purified P. pyralis luciferase, luminescence, 5 min; at 58.6 µM (top of the series)
Procedure, shortened: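 Counter-screen for direct inhibition of the luciferase enzyme by approved-drug library compounds, run at 10 nM enzyme in 50 mM Tris acetate (final). Luminescence was read within 5 min of enzyme-buffer addition and normalized to PTC124 versus DMSO (0%).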

[10] = S16 Schwann cell viability assay (CellTiter-Glo assay) (AID 624031; active = well fitted curve in the direction sought with a large enough effect; an effect the other way counts as inactive or inconclusive;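 also: cellular ATP luminescence as a viability measure; plate controls were DMSO-treated cells for no effect and cell-free wells for full effect; nearly all actives have a fitted effect of over 70% in size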); conditions: S16 rat Schwann cells viability, 24 h; at 57.5 µM (top of the series)
Procedure, shortened: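 This viability control uses native rat S16 Schwann cells grown in DMEM plus 10% FBS. After a 24 h compound treatment at 37 °C, CellTiter-Glo luminescence reports ATP content, scaled against DMSO-treated and cell-free wells.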

[11] = S16 Schwann cell PMP22 intronic element firefly luciferase assay (AID 624032; active = well fitted curve in the direction sought with a large enough effect; an effect the other way counts as inactive or inconclusive;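 also: plate controls were DMSO for no effect and PTC124 positive control mean for full effect; nearly all actives have a fitted effect of over 30% in size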); conditions: S16 rat Schwann cells, PMP22 element FLuc, 24 h; at 57.5 µM (top of the series)
[12] = qHTS Assay for Identifying Gametocytocidal Compounds (AID 743244; active = well fitted curve in the direction sought with a large enough effect; an effect the other way counts as inactive or inconclusive;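 also: % is scaled to controls: 0 for no effect and ±100 for the full control effect; actives lower the fluorescent signal which means gametocytes are killed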); conditions: P. falciparum 3D7 stage III-V gametocytes, alamarBlue, 72 h; hits give low values
[13] = qHTS assay to identify small molecule inhibitors of chordoma cells - UCH-2 (AID 1259356; active = well fitted curve in the direction sought with a large enough effect; an effect the other way counts as inactive or inconclusive; also: % is scaled to controls: 0 for no effect and ±100 for the full control effect); conditions: UCH-2 chordoma viability, CellTiter-Glo ATP luminescence, 48 h; at 46.1 µM (top of the series)
From the text: NIH Chemical Genomics Center [NCGC]
Chordoma is a rare and slow growing tumor that can occur anywhere along the spine, from the base of the skull to the tailbone. Current treatment options for chordoma is surgery and radiation therapy for those who are not candidates for surgery. But chordomas tend to return in the same location or surrounding areas of the original tumor after surgery and/or radiation. Chemotherapy can slow down the progression of the tumor. As chordoma is slow growing, the general cytotoxic agents that kill fast growing cells are ineffective, and some patients have been reported to respond to molecularly targeted drugs.
NCATS Pharmaceutical Collection (NPC) containing approximately 3000 clinically approved and investigational drugs were used to screen at 15 concentrations in a chordoma cell lines, UCH-2, to identify small molecule compounds that can inhibit chordoma cell growth.
NCGC Assay Protocol Summary:
Human chordoma cell line UCH-2 was dispensed at 800 per well in 4uL of culture medium into white solid bottom 1536-well plates (Corning Life Sciences, Corning, NY) using a Multidrop Combi (Thermo Scientific, Waltham, MA) dispenser. […] After 30min incubation at room temperature, the luminescence signal was quantified using a ViewLux plate reader (PerkinElmer, Shelton, CT).

[14] = P-glycoprotein substrates identified in KB-8-5-11 adenocarcinoma cell line, qHTS therapeutic library screen (AID 1346987; active = well fitted curve in the direction sought with a large enough effect; an effect the other way counts as inactive or inconclusive; also: % is scaled to controls: 0 for no effect and ±100 for the full control effect; nearly all actives have a fitted effect of over 65% in size); conditions: KB-8-5-11 (P-gp overexpressing) viability, CellTiter-Glo, 72 h; at 44.5 µM (top of the series)
Procedure, shortened: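 KB-8-5-11, a colchicine-selected P-gp-overexpressing KB-3-1 subline, was grown without colchicine for the assay. Cells were seeded at 500 cells/well, dosed in concentration-response and incubated 72 h at 37 degree C, 5% CO2. Viability was read by CellTiter-Glo luminescence.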

KB-3-1 = assay: Cytotoxic Profiling of Annotated Libraries Using Quantitative High-Throughput Screening (AID 1296008; active = well fitted curve in the direction sought with a large enough effect; an effect the other way counts as inactive or inconclusive; also: % is scaled to controls: 0 for no effect and ±100 for the full control effect; nearly all actives have a fitted effect of over 60% in size); conditions: Five cell lines viability, CellTiter-Glo ATP luminescence, 48-72 h, hits give low values
Procedure, shortened: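 Compounds were pin-transferred onto cells and incubated 48 or 72 hr at 37 degree Celsius, 95% humidity. CellTiter-Glo was added, plates sat 10 min at room temperature, then ATP-coupled luminescence was imaged as the viability read-out.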

astro = assay: Drug repurposing screens with cells derived from glioblastoma tumor samples (AID 1345199; active = well fitted curve in the direction sought with a large enough effect; an effect the other way counts as inactive or inconclusive; also: % is scaled to controls: 0 for no effect and ±100 for the full control effect; nearly all actives have a fitted effect of over 40% in size); conditions: viability, ATP luminescence, 48 h; at 45.9 µM (top of the series)
Procedure, shortened: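 Four patient lines of CD133+ GBM neurospheres were screened at several concentrations; hits were retested in those lines plus three slower-growing GBM lines, using 48-hour treatment and ATP-based viability.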

CN1CCC[C@H](OC(=O)[C@](O)(c2ccccc2)C2CCCC2)C1
inactive: activity change, negative = inhibition [1] -0.382% | activity, negative = inhibition [2] 9.02% | activity change, negative = inhibition [3] 1.6% | activation (PDE inhibition) [4] 6.14%

O=C(C1CCC1)N1CCN(C/C=C/c2ccccc2)CC1
inactive: activity change, negative = inhibition [5] -1.88%

CN1CC[C@H](OC(=O)[C@](O)(c2ccccc2)C2CCCC2)C1
inactive: activity change, negative = inhibition [1] -3.01% | activity, negative = inhibition [2] 12.1% | activity change, negative = inhibition [3] 3.18% | activation (PDE inhibition) [4] 1.08% | activation [7] 14.9%
active: activity change, negative = inhibition [6] -80.9%

CN1CCCC(OC(=O)C(O)(c2ccccc2)c2ccccc2)C1 (stereo not given)
inactive: activity change, negative = inhibition [8] -8.41% | activity change, negative = inhibition [9] 2.21% | activity change, negative = cytotoxicity [10] -29.1% | activity change, negative = inhibition [11] 13.2% | max response [12] 16.4% | activity change, negative = inhibition [13] -24.5% | activity change, negative = cytotoxicity [14] 0.979% | max response (KB-3-1) -0.336% | activity, negative = cell killing (astro) 0.657%

C=C(C)C#C[C@@](O)(C(=O)OC1CCN(C)CC1)c1ccccc1
inactive: activity change, negative = inhibition [1] -3.83% | activity, negative = inhibition [2] -1.24% | activity change, negative = inhibition [3] 2.03% | activation (PDE inhibition) [4] 1.58% | activation [7] 8.7%
